In PMC3691886 one finds ratio to parent data, which are given here for six variants.

Sequences and labels used below:
B1: Z α1-antitrypsin [not stated] / itself (parent)
chain: EDPQGDAAQKTDTSHHDQDHPTFNKITPNLAEFAFSLYRQLAHQSNSTNIFFSPVSIATAFAMLSLGTKADTHDEILEGLNFNLTEIPEAQIHEGFQELLRTLNQPDSQLQLTTGNGLFLSEGLKLVDKFLEDVKKLYHSEAFTVNFGDTEEAKKQINDYVEKGTQGKIVDLVKELDRDTVFALVNYIFFKGKWERPFEVKDTEEEDFHVDQVTTVKVPMMKRLGMFNIQHCKKLSSWVLLMKYLGNATAIFFLPDEGKLQHLENELTHDIITKFLENEDRRSASLHLPKLSITGTYDLKSVLGQLGITKVFSNGADLSGVTEEAPLKLSKAVHKAVLTIDKKGTEAAGAMFLEAIPMSIPPEVKFNKPFVFLMIEQNTKSPLFMGKVVNPTQK

The experiment covers variants of B1. Briefly: sandwich ELISA of intracellular polymers with polymer-specific 2C1 monoclonal antibody (COS-7 cell lysates). The following applies: COS-7 cells transiently transfected, serum-free medium for 24 h before lysis, n=4, parent: 1, read off a plot. Background: An ELISA detects its analyte on a solid surface through an enzyme-linked reagent.
In the case of EDPQGDAAQKTDTSHHDQDHPTFNKITPNLAEFAFSLYRQLAHQSNSTNIFFSPVSIATAFAMLSLGTKADTHDEILEGLNFNLTEIPEAQIHEGFQELLRTLNQPDSQLQLTTGNGLFLSEGLKLVDKFLEDVKKLYHSEAFTVNFGDTEEAKKQINDYVEKGTQGKIVDLVKELDRDTVFALVNYIFFKGKWERPFEVKDTEEEDFHVDQVTTVKVPMMKRLGMFNIQHCKKLSSWVLLMKYLGNATAIFFLPDEGKLQHLENELTHDIITKFLENEDRRSASLHLPKLSITGTYDLKSVLGQLGITKVFSNGADLSGVTEEAPLKLSKAVHKAVLTIDKKGTEAAGAMFLEDIPMSIPPEVKFNKPFVFLMIEQNTKSPLFMGKVVNPTQK [chain 1 A355D], the ratio to parent is 0.47. Under EDPQGDAAQKTDTSHHDQDHPTFNKITPNLAEFAFSLYRQLAHQSNSTNIFFSPVSIATAFAMLSLGTKADTHDEILEGLNFNLTEIPEAQIHEGFQELLRTLNQPDSQLQLTTGNGLFLSEGLKLVDKFLEDVKKLYHSEAFTVNFGDTEEAKKQINDYVEKGTQGKIVDLVKELDRDTVFALVNYIFFKGKWERPFEVKDTEEEDFHVDQVTTVKVPMMKRLGMFNIQHCKKLSSWVLLMKYLGNATAIFFLPDEGKLQHLENELTHDIITKFLENEDRRSASLHLPKLSITGTYDLKSVLGQLGITKVFSNGADLSGVTEEAPLKLSKAVHKAVLTIDKKGTEAAGAMFDEDIPMSIPPEVKFNKPFVFLMIEQNTKSPLFMGKVVNPTQK [chain 1 L353D A355D] stands 0.44. Consider EDPQGDAAQKTDTSHHDQDHPTFNKITPNLAEFAFSLYRQLAHQSNSTNIFFSPVSIATAFAMLSLGTKADTHDEILEGLNFNLTEIPEAQIHEGFQELLRTLNQPDSQLQLTTGNGLFLSEGLKLVDKFLEDVKKLYHSEAFTVNFGDTEEAKKQINDYVEKGTQGKIVDLVKELDRDTVFALVNYIFFKGKWERPFEVKDTEEEDFHVDQVTTVKVPMMKRLGMFNIQHCKKLSSWVLLMKYLGNATAIFFLPDEGKLQHLENELTHDIITKFLENEDRRSASLHLPKLSITGTYDLKSVLGQLGITKVFSNGADLSGVTEEAPLKLSKAVHKAVLTIDKKGTEAAGAMFDEAIPMSIPPEVKFNKPFVFLMIEQNTKSPLFMGKVVNPTQK [chain 1 L353D], for which the ratio to parent stood at 1.3. Under EDPQGDAAQKTDTSHHDQDHPTFNKITPNLAEFAFSLYRQLAHQSNSTNIFFSPVSIATAFAMLSLGTKADTHDEILEGLNFNLTEIPEAQIHEGFQELLRTLNQPDSQLQLTTGNGLFLSEGLKLVDKFLEDVKKLYHSEAFTVNFGDTEEAKKQINDYVEKGTQGKIVDLVKELDRDTVFALVNYIFFKGKWERPFEVKDTEEEDFHVDQVTTVKVPMMKRLGMFNIQHCKKLSSWVLLMKYLGNATAIFFLPDEGKLQHLENELTHDIITKFLENEDRRSASLHLPKLSITGTYDLKSVLGQLGITKVFSNGADLSGVTEEAPLKLSKAVHKAVLTIDKKGTEAAGAMFLEAIDMDIPPEVKFNKPFVFLMIEQNTKSPLFMGKVVNPTQK [chain 1 P357D S359D] stands 0.98; under EDPQGDAAQKTDTSHHDQDHPTFNKITPNLAEFAFSLYRQLAHQSNSTNIFFSPVSIATAFAMLSLGTKADTHDEILEGLNFNLTEIPEAQIHEGFQELLRTLNQPDSQLQLTTGNGLFLSEGLKLVDKFLEDVKKLYHSEAFTVNFGDTEEAKKQINDYVEKGTQGKIVDLVKELDRDTVFALVNYIFFKGKWERPFEVKDTEEEDFHVDQVTTVKVPMMKRLGMFNIQHCKKLSSWVLLMKYLGNATAIFFLPDEGKLQHLENELTHDIITKFLENEDRRSASLHLPKLSITGTYDLKSVLGQLGITKVFSNGADLSGVTEEAPLKLSKAVHKAVLTIDKKGDEDAGAMFLEAIPMSIPPEVKFNKPFVFLMIEQNTKSPLFMGKVVNPTQK [chain 1 T345D A347D], 0.08. For the variant EDPQGDAAQKTDTSHHDQDHPTFNKITPNLAEFAFSLYRQLAHQSNSTNIFFSPVSIATAFAMLSLGTKADTHDEILEGLNFNLTEIPEAQIHEGFQELLRTLNQPDSQLQLTTGNGLFLSEGLKLVDKFLEDVKKLYHSEAFTVNFGDTEEAKKQINDYVEKGTQGKIVDLVKELDRDTVFALVNYIFFKGKWERPFEVKDTEEEDFHVDQVTTVKVPMMKRLGMFNIQHCKKLSSWVLLMKYLGNATAIFFLPDEGKLQHLENELTHDIITKFLENEDRRSASLHLPKLSITGTYDLKSVLGQLGITKVFSNGADLSGVTEEAPLKLSKAVHKAVLTIDKKGTEAADADFLEAIPMSIPPEVKFNKPFVFLMIEQNTKSPLFMGKVVNPTQK [chain 1 G349D M351D], the ratio to parent came out at 0.74.
